# Experimental data from ChEMBL document CHEMBL5543069, “DW71177: A novel [1,2,4]triazolo[4,3-a]quinoxaline-based potent and BD1-Selective BET inhibitor for the treatment of acute myeloid leukemia” (Eur J Med Chem, 2024).
# Protein sequences, listed by entry. Tags and fused reporters are not part of them.
# UniProt P27361, whole entry, looked up: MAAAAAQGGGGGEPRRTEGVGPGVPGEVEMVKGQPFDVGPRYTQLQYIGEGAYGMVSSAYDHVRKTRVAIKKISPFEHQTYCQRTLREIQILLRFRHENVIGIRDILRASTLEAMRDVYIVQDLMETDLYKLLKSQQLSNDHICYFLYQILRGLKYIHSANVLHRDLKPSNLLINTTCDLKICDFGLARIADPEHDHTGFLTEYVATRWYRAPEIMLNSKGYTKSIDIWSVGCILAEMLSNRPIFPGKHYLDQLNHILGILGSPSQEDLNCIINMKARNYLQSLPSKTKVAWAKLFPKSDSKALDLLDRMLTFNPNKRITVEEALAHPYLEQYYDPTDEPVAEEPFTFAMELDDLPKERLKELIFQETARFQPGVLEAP
# UniProt P28482, whole entry, looked up: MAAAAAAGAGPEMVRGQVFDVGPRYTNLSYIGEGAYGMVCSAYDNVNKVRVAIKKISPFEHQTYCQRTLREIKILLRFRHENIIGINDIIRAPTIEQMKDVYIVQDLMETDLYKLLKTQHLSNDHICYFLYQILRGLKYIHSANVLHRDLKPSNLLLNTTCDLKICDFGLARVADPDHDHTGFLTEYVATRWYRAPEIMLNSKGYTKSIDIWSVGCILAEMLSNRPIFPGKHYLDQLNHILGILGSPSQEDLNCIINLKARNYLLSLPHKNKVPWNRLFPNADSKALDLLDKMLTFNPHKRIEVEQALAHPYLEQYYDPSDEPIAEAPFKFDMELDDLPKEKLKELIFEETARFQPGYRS
# Active and inactive are the calls of the source. No cut-off for these calls is given here.
# How the values were obtained:
# [1] = target: Mitogen-activated protein kinase; ERK1/ERK2 (Homo sapiens) (UniProt P27361+P28482); assay: Inhibition of ERK1/2 phosphorylation in human MV4-11 cells at 0.1 to 1 uM incubated for 24 hrs by Western blot analysis; assay type: cell-based; details: dose 0.1-1 µM
# [2] = Toxicity in Sprague-Dawley rat xenografted with human MV4-11 cells at 120 mg/kg, po administered daily for 21 days; assay type: organism-based; details: in vivo, 504 h, time 21 day
smiles,measurement,setting,value
COc1ccc2c(c1)nc(NCCCCNC(=O)CC(C)C)c1nnc(C)n12,inhibition,[1],Active
same,Activity,[2],Non-Toxic
